This note sets out measurements from patent US6748954B2, “Drug release from polymer matrices through mechanical stimulation” (The Regents of The University of Michigan, priority 2000, dated 2004).

Consider VEGF, for which the “dependence of VEGF release rate on magnitude of mechanical stimulation” value (10% versus 25% strain amplitude) was “directly related to the magnitude of the mechanical stimulation”. For the same substance, the “release rate of VEGF from non-compressed hydrogel disks” value (control, non-compressed disks (B'), same time course) was “fairly constant release rate”. Further, the “rate of release of VEGF from compressed hydrogel disks” value (six compression/relaxation cycles, 10% (A') or 25% (C') strain amplitude) was “significantly affected by mechanical stimulation”.
